These results are taken from paper PMC10191619, “Bilirubin gates the TRPM2 channel as a direct agonist to exacerbate ischemic brain damage” (Neuron, 2023).

This experiment deals with tMCAO D1066A KI mice. As to the kind of experiment: tMCAO ischemia model, infarct volume by TTC staining, D1066A KI mice. The note with it: 24 h after tMCAO.

For the compound `C=CC1=C(C)/C(=C/c2[nH]c(Cc3[nH]c(/C=C4\NC(=O)C(C)=C4C=C)c(C)c3CCC(=O)O)c(CCC(=O)O)c2C)NC1=O` [bilirubin, Bilirubin], the “exacerbated ischemic brain injury by bilirubin in the tMCAO model” value is recorded as “completely ablated”.
